For test [1] the following is noted: pH 7.4.
For test [2] the following is noted: pH 7.4. This is another data set of the same source.

Consider one substance from article PMC7563927 (Cells, 2020).

As for “human islet amyloid polypeptide [human IAPP, reference compound]”, the “Membrane leakage (calcein) of PC LUVs” value in test [1] is given as “more resistant to leakage”. Besides, the “Membrane leakage (calcein) of PC:PS LUVs” value in test [2] was “induced leakage”.
